US12472208B2 (priority 2013, dated 2025)

Tested on: lung function
Test: Accidental human exposure to chloromethyl-methyl-sulfide
Conditions: exposure in 1992, followed by recovery of a portion

CSCCl
temporary loss of lung function: more than 50%
